One may read the IC50 as the midpoint of a concentration-inhibition curve.

This is an account of results in BindingDB's records for doi:10.1016/j.ejmech.2017.03.079 (Taipei Medical University (Tmu), 2017).

The assay addresses T1, Histone deacetylase 8 (Homo sapiens, UniProt Q9BY41).
T1 sequence (Q9BY41 whole entry): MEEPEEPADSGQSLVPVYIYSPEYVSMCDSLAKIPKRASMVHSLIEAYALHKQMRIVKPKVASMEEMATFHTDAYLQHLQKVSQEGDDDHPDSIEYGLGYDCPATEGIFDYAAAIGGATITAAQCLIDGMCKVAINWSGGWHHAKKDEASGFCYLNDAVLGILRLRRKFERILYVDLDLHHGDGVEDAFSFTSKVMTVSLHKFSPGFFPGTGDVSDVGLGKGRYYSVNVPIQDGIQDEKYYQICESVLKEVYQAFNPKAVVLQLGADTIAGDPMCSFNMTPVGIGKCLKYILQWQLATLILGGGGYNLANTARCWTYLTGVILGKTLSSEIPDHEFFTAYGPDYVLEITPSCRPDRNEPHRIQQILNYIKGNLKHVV
Kind of assay: Inhibition of recombinant human full length HDAC8 using Fluor-de-Lys as substrate after 60 mins by spectrofluorimetric analysis.

The structures appear in SMILES notation.

On to `O=C(CCCCCCC(=O)Nc1ccccc1)NO` [Zolinza], for which the IC50 was > 1000 nM.
